The values below come from PMC4151304 (European journal of medicinal chemistry, 2012).

Protein sequences, listed by entry. Tags and fused reporters are not part of them.
UniProt Q63009, whole entry: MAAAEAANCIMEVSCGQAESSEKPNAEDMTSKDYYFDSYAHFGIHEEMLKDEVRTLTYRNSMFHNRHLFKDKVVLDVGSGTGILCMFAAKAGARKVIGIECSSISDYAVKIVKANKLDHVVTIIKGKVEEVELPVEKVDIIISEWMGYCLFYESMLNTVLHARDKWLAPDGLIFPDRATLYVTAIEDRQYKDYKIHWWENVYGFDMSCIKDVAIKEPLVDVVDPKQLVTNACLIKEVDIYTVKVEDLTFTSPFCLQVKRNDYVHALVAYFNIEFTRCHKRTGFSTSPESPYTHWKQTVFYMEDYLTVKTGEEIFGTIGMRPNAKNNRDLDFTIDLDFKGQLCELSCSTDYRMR

SMILES strings stand for the structures.

In the test the target is PRMT1 (Rattus norvegicus, UniProt Q63009). Description: Radioactive methyltransferase assay, PRMT1. In kind it is biochemical. As to conditions: IC50, His6x-PRMT1 0.05 μM, 2 μM H4(1-20), 5 μM [14C]-SAM, 30°C.

As for `CCn1/c(=C\C=C\C2=[N+](CC)c3cccc4cccc2c34)c2cccc3cccc1c32.[I-]` [compound 11, 1-ethyl-2-[3-(1-ethylbenz[c,d]indol-2(1H)-ylidene)-1-propen-1-yl]-iodide], the concentration for half-maximal inhibition (IC50) came to 4.1 ± 0.1 µM.

Usually IC50 stands for the concentration needed to halve the response being measured.
